Calls of active or inactive are those of the source.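 Rule for the calls: active = tumour findings in long-term animal cancer tests in more than one sex, species or organ; inactive = no tumour finding and more than one negative test.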
Experiment: DSSTox (CPDBAS) Carcinogenic Potency Database Summary MultiCellCall Results
Conditions: animal carcinogenicity bioassays, multi-cell call summary
Text: The Carcinogenic Potency Database (CPDB) is a unique and widely used international resource of the results of over 6500 chronic, long-term animal cancer tests on over 1500 chemical substances. The CPDB provides easy access to the bioassay literature, with qualitative and quantitative analyses of both positive and negative experiments that have been published over the past 50 years in the general literature and by the National Cancer Institute/National Toxicology Program. The CPDB standardizes the diverse literature of cancer bioassays that vary widely in protocol, histopathological examination and nomenclature, and in the published author's choices of what information to provide in their papers. Results are reported in the CPDB for tests in rats, mice, hamsters, dogs, and nonhuman primates, and are based on the most positive result among all experiments for each sex-species. The DSSTox CPDBAS (all species) file incorporates data from the CPDB Summary Tables for the full list of over 1500 chemical substances tested in at least one species. A summary MultiCellCall, based on experimental bioassay results of one or more species, is provided in the DSSTox CPDBAS file (see Source URL) for more than 1150 chemical substances. […]

With `O=[N+]([O-])C(Cl)(Cl)Cl` the outcome was “inactive; multisex inactive”.
